Read-outs that look alike come from different tables or passages of the source.
Experiments:
[1] = Measured characteristics of lipid microspheres (particle size, incorporation); assay type: physicochemical; conditions: lipid microsphere emulsion after 1.2 μm filter, 300 μg/mL
Source text: The product is then further emulsified by means of a manton gaulin type homogenizer.

[2] = drug/lipid 0.25, EPC/EPG (1/1), sucrose 300 mM

For “γ-Glutamyl-S(benzyl)cysteinyl-R-phenyl glycine diethyl ester hydrochloride [Compound 9]”, the “particle size of final emulsion” value [1] was “approximately 220 nM”, the Viscosity ([2]; lyophilization time 32 hr) was “Negligible” and the Viscosity ([2]; lyophilization time 40 hr) was “Negligible”. For the same substance, the Viscosity ([2]; lyophilization time 44 hr) was “Negligible”, the Viscosity ([2]; lyophilization time 54 hr) was “Viscous” and the Viscosity ([2]; lyophilization time 59 hr) was “Very”.

From US7029695B2, “Therapeutic compositions containing glutathione analogs” (Telik, Inc., priority 2001, dated 2006)
